Antibody variant affinities, Ab-14 light chain, assay B

Values reported by Li et al. 2023, doi:10.1038/s41467-023-39022-2 (FLAb copy).

Antigen: PDVDLGDISGINAS, a 14-residue peptide of the SARS-CoV-2 spike HR2 region.

Ab-14 is the parent antibody, in scFv form: VH, then the linker GGGGSGGGGSGGGGS, then VL. The heavy chain is unchanged in all variants.
VH: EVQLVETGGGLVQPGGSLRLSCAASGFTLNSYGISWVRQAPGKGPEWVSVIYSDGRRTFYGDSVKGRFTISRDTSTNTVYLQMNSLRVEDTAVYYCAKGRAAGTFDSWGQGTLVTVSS
VL: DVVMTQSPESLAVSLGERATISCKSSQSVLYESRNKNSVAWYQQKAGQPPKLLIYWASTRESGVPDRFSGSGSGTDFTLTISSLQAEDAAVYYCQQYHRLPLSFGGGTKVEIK

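This is the validation round: designs drawn from the data on random variants, tested in the same kind of assay. Several design methods are mixed in this list. AlphaSeq pools MATa yeast showing the antibodies with MATalpha yeast showing the peptide. Pairs that bind mate more often; barcode pairs of the diploids are counted by sequencing. A regression on co-assayed BCL2-family reference pairs converts the normalised counts of each replicate to an apparent Kd. The assay was run in six technical replicates.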

The parent's light chain CDRs are KSSQSVLYESRNKNSVA, WASTRES, QQYHRLPLS; each variant's own CDRs replace them letter for letter. Variants here have more than six changes. Each Kd is an estimate from the mating assay, the geometric mean of the replicates in which the pair was seen; lower is stronger. A pair that was not seen in any replicate is written "no signal"; this usually means weak binding, but a binder can also be missed.

* MLGDVAHGSSRKENSVA | DNDTRES | QQYDRLPLS -> 18 nM (2 of 6 replicates; controls 0 of 18)
* NFSQMVLTGSTLRNSVA | HASTRNE | QQYHRLPLI -> 10 nM (6 of 6 replicates; controls 2 of 18)
* KLRQLTHIESFNKNNVA | EMTTREE | QSYDRLPLS -> 13 nM (6 of 6 replicates; controls 1 of 18)
* KITQMVNYESTHINAVA | QMSTREE | QQYFRLPLS -> 1.4 nM (3 of 6 replicates; controls 0 of 18)
* MISQIYNMGQFAINSVA | QASQRNA | QQYDRLPLI -> 51 nM (6 of 6 replicates; controls 1 of 18)
* KVTMYELEMEFNRSAVA | AAEVRAP | QQYWRLPLE -> 340 nM (3 of 6 replicates; controls 0 of 18)
* KIRVNQYMFSEMESNIA | GTSVRHS | QQYFHLPLT -> 3.1 nM (3 of 6 replicates; controls 0 of 18)
* KFQQSQLYEKRNQNSVA | SASYRMS | QQYHRLPLS -> 4.6 nM (6 of 6 replicates; controls 1 of 18)
* MIFYGQERDIAHESSIA | NDMEVSK | QQYYRLPLS -> no signal (0 of 6 replicates; controls 0 of 18)
* RISQTIQENVRQYNSVA | NGMTRNA | QHYSRLPLE -> 12 nM (6 of 6 replicates; controls 3 of 18)
* MLSMVTEGMRRKHNSVA | DNSTREP | QQYDRLPLS -> 200 nM (2 of 6 replicates; controls 1 of 18)
* MISQLMNMGTFAINSVA | QAEIRNE | QQYDRLPLI -> 310 nM (4 of 6 replicates; controls 0 of 18)
* SMAYTQHFGFQQEKAIA | EVATREQ | QQYFRLPLT -> 5.2 nM (6 of 6 replicates; controls 2 of 18)
* KISQMIRVGSTASNSIA | EEVTRAK | QQYHRLPLS -> 7.3 nM (6 of 6 replicates; controls 1 of 18)
* HIDDFEPSEGEKWNAIA | QDATRLQ | QAYQRLPLS -> 30 nM (6 of 6 replicates; controls 3 of 18)
* TISYSALMTGLNRNSVA | QAEERLD | QQYNRLPLS -> 66 nM (4 of 6 replicates; controls 0 of 18)
* AQSFSHLGSSRNKNSVA | EASTREQ | QQYHRLPLS -> 1.8 nM (6 of 6 replicates; controls 0 of 18)
* HLKTMPGEGPQEYSSIA | HAELRTP | QQYYRLPLM -> 3.9 nM (6 of 6 replicates; controls 0 of 18)
* TLYGLSMSMSKNKNNVA | EMTTRED | QQYDRLPLI -> 2.2 nM (6 of 6 replicates; controls 0 of 18)
* SISYLDYRGSQGHNNIA | EGSQRAE | QQYIRLPLN -> 2.5 nM (6 of 6 replicates; controls 0 of 18)
* TISGMTNQATSKHNSVA | NVTMRPE | QQYHRLPLS -> 18 nM (6 of 6 replicates; controls 1 of 18)
* KIGMTLNTLMHKKNNVA | DLVMREN | QQYFRLPLS -> 21 nM (6 of 6 replicates; controls 1 of 18)
* KSSQSVLNESLNDNSCA | WASTRVE | NQYVRLPLS -> 76 nM (2 of 6 replicates; controls 0 of 18)
* QLDWYNSTATAAANSVA | GVAQRMN | QQYMRLPLM -> 1.2 nM (6 of 6 replicates; controls 2 of 18)
* VLPDNLLMSESQYHSIA | NGVQRME | QQYERLPLT -> 1.8 nM (6 of 6 replicates; controls 2 of 18)
* MISDMGLHDSRISNSVA | NNSTREA | QQYDRLPLS -> 430 nM (5 of 6 replicates; controls 1 of 18)
* MISESVMYESRNRNNVA | DNSTRED | QCYDRLPLS -> no signal (0 of 6 replicates; controls 1 of 18)
* KVAQGIYEGKRHSHNIA | EVSHLCD | QQYSRLPLE -> 12 nM (6 of 6 replicates; controls 3 of 18)
* TISQMTSVFSQSINNVA | EVSMRES | QQYDRLPLI -> 14 nM (6 of 6 replicates; controls 2 of 18)
* MMSQLTYMGSRARNAVA | QAETRVN | QQYHHLPLI -> 14 nM (6 of 6 replicates; controls 3 of 18)
* KISQMIRVGSTHSNSIA | EEAKRAD | QQYHRLPLA -> 110 nM (4 of 6 replicates; controls 0 of 18)

From the list, the first 2 with no signal in any replicate:

CDR-L1	CDR-L2	CDR-L3	Kd (apparent)	seen in	control signals
MIFYGQERDIAHESSIA	NDMEVSK	QQYYRLPLS	no signal	0/6	0/18
MISESVMYESRNRNNVA	DNSTRED	QCYDRLPLS	no signal	0/6	1/18

A sequence measured in both rounds can read differently, since the two assays cover different ranges. Three control strains display no target. For all light chain designs, 4% of the pairings with them gave a signal, with a median of 430 nM and one signal in twenty below 38 nM, so weak values seen in few replicates may be background. Also given: how often the same scFv was detected with the empty control strains. The authors' rule: three or more of the six replicates give a measured affinity, fewer mean a poor binder.